Values of other authors, collected in patent US9598354B2, “Fumarate compounds, pharmaceutical compositions thereof, and methods of use” (priority 2015, dated 2017).

Tested on: ALS

Nc1nc2ccc(OC(F)(F)F)cc2s1 [riluzole]
extension of survival: about three
